# According to patent US8377983B2, “Benzazole derivatives, compositions, and methods of use as aurora kinase inhibitors” (TransTech Pharma, Inc., priority 2006, dated 2013):
# Tested on: BT-474 breast xenograft
# Experiment: BT-474 xenograft model, Example 88 alone and in combination with trastuzumab
# Type: in vivo, athymic SCID mice
# Conditions: for Median Tumor Size: Example 88 30 mg/kg i.p. b.i.d. 3 days on, 2 days off, 5 cycles, trastuzumab 10 mg/kg i.p. twice weekly 4 weeks
# Excerpt: Mice-bearing sc tumors were randomized, and treatment groups consisted of 10 mice.
# [1] = day 24, out of 10 mice, Table CC head: Example 88 10 mg/kg, Trastuzumab 10 mg/kg
substance,measurement,setting,value
Trastuzumab [reference compound],Median Tumor Size,day 4 of study,133 mg
same,Median Tumor Size,day 7 of study,132 mg
same,Median Tumor Size,day 10 of study,124 mg
same,Median Tumor Size,day 21 of study,54 mg
same,complete responders (CR),[1],0/10
same,partial responders (PR),[1],0/10
same,Median Tumor Size,day 24 of study,36 mg
same,Median Tumor Size,day 28 of study,18 mg
